The source of these data is patent publication US9278960B2, “Quinoline carboxamide and quinoline carbonitrile derivatives as mGluR2-negative allosteric modulators, compositions, and their use” (Merck Sharp & Dohme Corp., priority 2011, dated 2016).

By UniProt entry, the sequences of proteins in these tests, tags left out. Residues count along the entry.
UniProt Q14416, 19-872: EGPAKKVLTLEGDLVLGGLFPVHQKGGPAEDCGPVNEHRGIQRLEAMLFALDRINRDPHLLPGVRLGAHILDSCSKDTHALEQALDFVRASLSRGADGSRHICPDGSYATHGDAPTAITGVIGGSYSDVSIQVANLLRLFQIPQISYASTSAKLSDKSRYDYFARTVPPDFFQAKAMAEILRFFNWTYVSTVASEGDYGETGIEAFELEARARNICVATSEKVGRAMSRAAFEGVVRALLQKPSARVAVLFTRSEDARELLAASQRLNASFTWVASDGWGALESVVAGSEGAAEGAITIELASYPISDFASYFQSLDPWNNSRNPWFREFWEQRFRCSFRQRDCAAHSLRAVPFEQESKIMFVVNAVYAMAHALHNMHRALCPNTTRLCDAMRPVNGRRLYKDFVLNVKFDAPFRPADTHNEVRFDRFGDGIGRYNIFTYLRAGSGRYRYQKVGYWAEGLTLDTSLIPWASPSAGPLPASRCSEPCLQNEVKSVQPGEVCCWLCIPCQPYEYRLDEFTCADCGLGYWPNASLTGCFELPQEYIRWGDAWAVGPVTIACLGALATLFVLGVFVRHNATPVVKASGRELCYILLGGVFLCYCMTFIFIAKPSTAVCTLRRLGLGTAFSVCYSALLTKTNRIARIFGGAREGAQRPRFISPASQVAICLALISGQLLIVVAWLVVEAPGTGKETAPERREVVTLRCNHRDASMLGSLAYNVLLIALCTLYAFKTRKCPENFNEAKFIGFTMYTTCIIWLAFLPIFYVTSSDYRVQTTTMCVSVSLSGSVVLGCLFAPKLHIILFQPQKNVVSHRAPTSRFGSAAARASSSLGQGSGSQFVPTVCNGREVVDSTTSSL

As usually defined, the IC50 is the concentration needed to halve the response being measured.

The structures appear in SMILES notation.

In this assay the target is human mGluR2 (Homo sapiens (Human), UniProt Q14416). Description: FLIPR Ca2+ mobilization antagonist assay in CHO dhfr- cells expressing recombinant human mGluR2 and Gα16. Format: cell-based. Conditions: antagonist response after addition of 2,500 nM glutamate, Fluo-4 AM, FLIPR384. (Calcium assays in cells follow changes in intracellular calcium, usually with a dye or a luminescent sensor.)

Consider `COc1ncc(Cc2ccc3c(-c4ccc(F)cc4)cc(C(N)=O)nc3c2)cn1` [Example 6-9, 4-(4-fluorophenyl)-7-[(2-methoxypyrimidin-5-yl)methyl] quinoline-2-carboxamide], for which the half-maximal inhibitory concentration (IC50) is 0.01 µM.
In the case of `NC(=O)c1cc(-c2ccc(OC(F)F)cc2)c2ccccc2n1` [Example 1-10, 4-[4-(difluoromethoxy)phen-yl]quinoline-2-carboxamide] it was 0.66 µM; in that of `NC(=O)c1cc(-c2ccc(F)cc2)c2ccc(CN3CCCC(C(F)(F)F)C3)cc2n1` (stereo not drawn) [Example 4-123, 4-(4-fluorophenyl)-7-{[3-(trifluoromethyl)piperidin-1-yl]methyl}quinoline-2-carboxamide], 0.049 µM; in that of `C[C@@H]1CNC(C(F)(F)F)CN1Cc1ccc2c(-c3ccc(F)cc3)cc(C(N)=O)nc2c1` (stereo partly drawn) [Example 4-101, 4-(4-fluorophenyl)-7-{[(2R)-2-methyl-5-(trifluoromethyl)piperazin-1-yl]methyl}quinoline-2-carboxamide], 0.01 µM.
As for `NC(=O)c1cc(-c2ccc(F)cc2)c2ccc(Cn3cc(C(=O)O)nn3)cc2n1` [Example 3-28, 1-{[2-carbamoyl-4-(4-fluorophenyl)quin-olin-7-yl]methyl}-1H-1,2,3-triazole-4-carboxylic acid], the IC50 stood at 0.084 µM.
In the case of `NC(=O)c1cc(-c2ccc(F)cc2)c2ccc(Cc3cnc(C4CC4)nc3)c(F)c2n1` [Example 7-25, 7-[(2-cyclopropylpyrimidin-5-yl)methyl]-8-fluoro-4-(4-fluorophenyl)quinoline-2-carboxamide], the IC50 was determined as 0.02 µM.
On to `Cn1cc(-c2cc(C(N)=O)nc3c(F)c(CN4C(=O)NC(C)(C)C4=O)ccc23)cn1` [Example 7-32, 7-[(4,4-dimethyl-2,5-dioxoimidazolidin-1-yl)methyl]-8-fluoro-4-(1-methyl-1H-pyrazol-4-yl)quinoline-2-carboxamide], for which the IC50 was 0.214 µM.
As for `CC1(C)CC(=O)N(Cc2ccc3c(-c4ccc(F)cc4)cc(C(N)=O)nc3c2)C1=O` [Example 2-20, 7-[(3,3-dimethyl-2,5-dioxopyrrolidin-1-yl)methyl]-4-(4-fluorophenyl)quinoline-2-carboxamide], the IC50 came to 0.027 µM.
On to `CN(CC(N)=O)Cc1ccc2c(-c3ccc(F)cc3)cc(C(N)=O)nc2c1` [Example 4-31, 7-{[(2-amino-2-oxoethyl)(methyl)amino]methyl}-4-(4-fluorophenyl)quino-line-2-carboxamide], for which the IC50 was 0.084 µM.
For the compound `CC(C)C1CN(Cc2ccc3c(-c4ccc(F)cc4)cc(C(N)=O)nc3c2)CCN1` (stereo not drawn) [Example 4-109, 4-(4-fluorophenyl)-7-{[3-(1-methylethyl)piper-azin-1-yl]methyl}quinoline-2-carboxamide], the IC50 was 0.116 µM.
Turning to `Cn1cc(-c2cc(C(N)=O)nc3cc(CN4CCCC(F)(F)C4)ccc23)cn1` [Example 4-73, 7-[(3,3-difluoropiperidin-1-yl)methyl]-4-(1-methyl-1H-pyrazol-4-yl)quinoline-2-carboxamide], the IC50 came to 0.03 µM.
Consider `CC(C)(C)OC(=O)N(Cc1ccc2c(-c3ccc(F)cc3)cc(C(N)=O)nc2c1)C(=O)OC(C)(C)C` [Example 2-23, di-tert-butyl {[2-carbamoyl-4-(4-fluorophenyl)quinolin-7-yl]methyl}imidodi-carbonate], for which the IC50 was 0.456 µM.
For the compound `COc1ncc(-c2cc(C(N)=O)nc3cc(CN4CCOC(C(F)(F)F)C4)ccc23)s1` (stereo not drawn) [Example 4-55, 4-(2-methoxy-1,3-thiazol-5-yl)-7-{[2-(trifluoromethyl)morpholin-4-yl]methyl}quinoline-2-carboxamide], the IC50 turned out to be 0.033 µM.
In the case of `Cc1cc(Cc2ccc3c(-c4cnn(C)c4)cc(C(N)=O)nc3c2F)cc(C)n1` [Example 7-34, 7-[(2,6-dimethylpyridin-4-yl)methyl]-8-fluoro-4-(1-methyl-1H-pyrazol-4-yl)quinoline-2-carboxamide], the IC50 worked out at 0.039 µM.
For the compound `Cn1cc(-c2cc(C(N)=O)nc3cc(CN4CCS(=O)(=O)C(C5CC5)C4)ccc23)cn1` (stereo not drawn) [Example 4-127, 7-[(2-cyclopropyl-1,1-dioxidothiomorpholin-4-yl)methyl]-4-(1-methyl-1H-pyrazol-4-yl)quinoline-2-carboxamide], the IC50 was found to be 0.097 µM.
For the compound `NC(=O)c1cc(-c2ccc(F)cc2)c2ccc(CN3C(=O)CCC3=O)c(F)c2n1` [Example 7-13, 7-[(2,5-dioxopyrrolidin-1-yl)methyl]-8-fluoro-4-(4-fluorophenyl)quinoline-2-carboxamide], the IC50 turned out to be 0.013 µM.
On to `Cn1cc(-c2cc(C(N)=O)nc3cc(CN4CCCC5(CC5)C4)ccc23)cn1` [Example 4-120, 7-(5-azaspiro[2.5]oct-5-ylmethyl)-4-(1-methyl-1H-pyrazol-4-yl)quinoline-2-carboxamide], for which the IC50 amounted to 0.238 µM.
For `COc1cc(C)c(-c2cc(C(N)=O)nc3cc(CCc4cnc(C)nc4)ccc23)c(C)c1` [Example 8-53, 4-(4-methoxy-2,6-dimethylphenyl)-7-[2-(2-methylpyrimidin-5-yl)ethyl]quinoline-2-carboxamide], the IC50 stood at 0.052 µM.
As to `NC(=O)c1cc(-c2ccc(F)cc2)c2ccc(Cn3cnc4cccnc43)cc2n1` [Example 3-33, 4-(4-fluorophenyl)-7-(3H-imidazo[4,5-b]pyridin-3-ylmethyl)quinoline-2-carboxamide], the IC50 came out at 0.069 µM.
For `COc1ncccc1Cc1ccc2c(-c3cnn(C)c3)cc(C(N)=O)nc2c1F` [Example 7-30, 8-fluoro-7-[(2-methoxypyridin-3-yl)methyl]-4-(1-methyl-1H-pyrazol-4-yl)quinoline-2-carboxamide] the value was 0.021 µM; for `CC[C@](O)(c1cn(Cc2ccc3c(-c4ccccc4C)cc(C(N)=O)nc3c2)nn1)C(F)(F)F` [Example 3-15, 7-({4-[(1S)-1-hydroxy-1-(trifluoromethyl)propyl]-1H-1,2,3-triazol-1-yl}methyl)-4-(2-methylphenyl)quinoline-2-carboxamide], 0.085 µM; for `Cc1ccc2c(-c3ccc(C#N)cc3)cc(C(N)=O)nc2c1` [Example 1-29, 4-(4-cyanophenyl)-7-methylquinoline-2-carboxamide], 0.19 µM.
For `CO[C@H]1CCN(Cc2ccc3c(-c4ccc(F)cc4)cc(C(N)=O)nc3c2)C1` [Example 4-33, 4-(4-fluorophenyl)-7-{[(3S)-3-methoxypyrrolidin-1-yl]methyl}quinoline-2-carboxamide], the IC50 is 0.138 µM.
Take `CC(C)CC1CN(Cc2ccc3c(-c4cnn(C)c4)cc(C(N)=O)nc3c2)CCO1` (stereo not drawn) [Example 4-100, 7-{[2-(2-methylpropyl)morph-olin-4-yl]methyl}-4-(1-methyl-1H-pyrazol-4-yl)quinoline-2-carboxamide]: the half-inhibitory concentration (IC50) stood at 0.024 µM.
In the case of `CC(C)(C)OC(=O)NCc1ccc2c(-c3ccc(F)cc3)cc(C(N)=O)nc2c1` [Example 2-32, tert-butyl {[2-carbamoyl-4-(4-fluorophenyl)quinolin-7-yl]methyl}carbamate] it was 0.129 µM.
As to `COc1ccc(-c2cc(C(N)=O)nc3cc(C(C)Cc4ccc(CF)nc4)ccc23)c(F)c1` (stereo not drawn) [Example 8-49, 4-(2-fluoro-4-methoxyphenyl)-7-{2-[6-(fluoromethyl)pyridin-3-yl]-1-methylethyl} quinoline-2-carboxamide], the IC50 is 0.009 µM.
In the case of `NC(=O)c1cc(-c2ccc(F)cc2)c2ccc(Cn3c(C4CCCC4)nc4ccccc43)cc2n1` [Example 3-41, 7-[(2-cyclopentyl-1H-benzimidazol-1-yl)methyl]-4-(4-fluorophenyl)quin-oline-2-carboxamide] it was 0.089 µM.
With `Cn1cc(-c2cc(C(N)=O)nc3cc(CN4CCC(C(F)(F)F)CC4)ccc23)cn1` [Example 4-70, 4-(1-methyl-1H-pyrazol-4-yl)-7-{[4-(trifluoromethyl)piperidin-1-yl]methyl}quinoline-2-carboxamide], the IC50 is 0.114 µM.
With `COc1ccc(-c2cc(C(N)=O)nc3cc(C(C)Cc4cccnc4N)ccc23)cc1` (stereo not drawn) [Example 8-36, 7-[2-(2-aminopyridin-3-yl)-1-methylethyl]-4-(4-methoxyphenyl) quinoline-2-carboxamide], the IC50 amounted to 0.015 µM.
In the case of `COc1ccc(-c2cc(C(N)=O)nc3cc(C(C)Cc4ccc(C)nc4)ccc23)cc1` (stereo not drawn) [Example 8-43, 4-(4-methoxyphenyl)-7-[1-methyl-2-(6-methylpyridin-3-yl)ethyl]quinoline-2-carboxamide] it was 0.01 µM; in that of `NC(=O)c1cc(-c2ccc(F)cc2)c2ccc(CN3C(=O)CNC3=O)cc2n1` [Example 2-8, 7-[(2,5-dioxoimidazolidin-1-yl)methyl]-4-(4-fluorophenyl)quinoline-2-carboxamide], 0.038 µM; in that of `CN1CCN(Cc2ccc3c(-c4ccc(F)cc4)cc(C(N)=O)nc3c2)CC1` [Example 4-43, 4-(4-fluorophenyl)-7-[(4-methylpiperazin-1-yl)methyl]quinoline-2-carboxamide], 0.252 µM.
For the compound `CC1(C)NC(=O)N(Cc2ccc3c(-c4ccc(F)cc4)cc(C(N)=O)nc3c2)C1=O` [Example 2-16, 7-[(4,4-dimethyl-2,5-dioxoimidazolidin-1-yl)methyl]-4-(4-fluorophenyl)quinoline-2-carboxamide], the IC50 stood at 0.059 µM.
In the case of `CN(C)C1CCN(Cc2ccc3c(-c4ccc(F)cc4)cc(C(N)=O)nc3c2)C1` (stereo not drawn) [Example 4-34, 7-{[3-(dimethylamino)pyrrolidin-1-yl]methyl}-4-(4-fluorophenyl)quino-line-2-carboxamide] it was 0.33 µM; in that of `CC1CN(Cc2ccc3c(-c4ccc(F)cc4)cc(C(N)=O)nc3c2)CC(C(F)(F)F)N1` (stereo not drawn) [Example 4-113, 4-(4-fluorophenyl)-7-{[3-methyl-5-(trifluoromethyl)piperazin-1-yl]methyl}quinoline-2-carboxamide], 0.024 µM.
On to `COc1ccc(-c2cc(C(N)=O)nc3cc(C(C)Cc4ccc(C)nc4)ccc23)cc1` (stereo not drawn) [Example 8-42, 4-(4-methoxyphenyl)-7-[1-methyl-2-(6-methylpyridin-3-yl)ethyl]quinoline-2-carboxamide], for which the IC50 turned out to be 0.012 µM.
